We go through 20 molecules from patent US9133224B2, “Macrocyclic kinase inhibitors” (OSI Pharmaceuticals, LLC, priority 2010, dated 2015).

Amino acid sequences for entries named in this document (tags omitted).
UniProt Q05397, whole entry: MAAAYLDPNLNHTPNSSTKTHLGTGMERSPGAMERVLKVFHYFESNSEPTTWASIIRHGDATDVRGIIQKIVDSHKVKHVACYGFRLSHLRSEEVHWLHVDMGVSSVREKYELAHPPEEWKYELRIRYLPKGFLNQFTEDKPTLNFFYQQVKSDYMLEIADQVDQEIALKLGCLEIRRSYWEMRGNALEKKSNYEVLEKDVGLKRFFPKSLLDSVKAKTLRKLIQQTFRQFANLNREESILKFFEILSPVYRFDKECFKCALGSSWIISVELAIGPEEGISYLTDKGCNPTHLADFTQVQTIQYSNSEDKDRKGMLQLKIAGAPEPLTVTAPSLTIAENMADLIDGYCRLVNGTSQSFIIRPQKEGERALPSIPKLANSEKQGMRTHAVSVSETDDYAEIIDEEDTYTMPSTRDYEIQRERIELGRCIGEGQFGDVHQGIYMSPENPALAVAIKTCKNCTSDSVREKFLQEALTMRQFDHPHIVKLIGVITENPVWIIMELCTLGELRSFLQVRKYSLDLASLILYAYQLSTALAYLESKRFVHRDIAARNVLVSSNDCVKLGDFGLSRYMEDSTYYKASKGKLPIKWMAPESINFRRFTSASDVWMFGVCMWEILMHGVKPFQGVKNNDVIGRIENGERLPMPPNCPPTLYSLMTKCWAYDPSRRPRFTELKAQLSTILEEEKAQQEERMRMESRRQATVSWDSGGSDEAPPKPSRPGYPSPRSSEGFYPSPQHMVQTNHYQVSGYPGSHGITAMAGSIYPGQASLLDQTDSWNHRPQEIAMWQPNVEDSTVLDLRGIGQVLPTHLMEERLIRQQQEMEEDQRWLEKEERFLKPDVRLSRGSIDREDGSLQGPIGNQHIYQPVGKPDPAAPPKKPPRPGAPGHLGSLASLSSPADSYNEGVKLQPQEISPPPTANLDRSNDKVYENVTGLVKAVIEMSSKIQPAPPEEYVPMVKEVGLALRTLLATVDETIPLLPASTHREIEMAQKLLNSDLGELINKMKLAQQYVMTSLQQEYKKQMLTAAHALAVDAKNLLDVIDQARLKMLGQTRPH

Like-named read-outs stand apart in the source and are kept apart here. Where only a bound is given, the exact number is not on record here.

In test [1] the target is GST-tagged full-length FAK enzyme (PTK2) (Homo sapiens, UniProt Q05397). Description: Biochemical Omnia Assay (FAK). Conditions: read-out: FAK Activity Biochemical OMNIA, [ATP] = 50uM, mean IC50.
The target of test [2] is FAK (Homo sapiens, UniProt Q05397). Nature of the test: Cell-based capture ELISA for inhibition of FAK autophosphorylation [pY397] in U87MG cells. (In general: ELISA stands for enzyme-linked immunosorbent assay.)
Where [3] appears, read: read-out: FAK Activity Mechanistic (U87MG) HP, 50% (v/v) human plasma, mean IC50.
Setting [4] is: read-out: FAK Activity Mechanistic (U87MG) MP, 50% (v/v) mouse plasma, mean IC50.
Setting [5] is: read-out: FAK Activity Mechanistic (U87MG) NP, no plasma present, mean IC50.

With `CCOP1(=O)Cc2ccc(c(OC)c2)Nc2ncc(C(F)(F)F)c(n2)Nc2ccc(nc2C(=O)NC)-c2cn(nn2)CCCO1` (single isomer, unassigned), the IC50 in test [1], in test [2] (setting [3]), in test [2] (setting [4]) and in test [2] (setting [5]) was < 400 nM throughout.
With `CCOP1(=O)Cc2ccc(c(OC)c2)Nc2ncc(C(F)(F)F)c(n2)Nc2ccc(nc2C(=O)NC)-c2cnn(c2)C(C)(C)CCO1` (centres unmarked), the IC50 in test [1], in test [2] (setting [3]), in test [2] (setting [4]) and in test [2] (setting [5]) was < 400 nM throughout.
For the molecule `CCOP1(=O)Cc2ccc(c(OC)c2)Nc2ncc(C(F)(F)F)c(n2)Nc2ccc(nc2C(=O)NC)-c2cn(nc2Cl)CCCO1` (centres unmarked), the IC50 in test [1] is < 400 nM; in test [2] (setting [3]) it was < 400 nM; in test [2] (setting [4]) it was 400 to 4000 nM; in test [2] (setting [5]) it was < 400 nM.
In the case of `CCOP1(=O)Cc2ccc(c(OC)c2)Nc2ncc(C(F)(F)F)c(n2)Nc2ccc(cc2C(=O)NC)-c2cnn(c2)CCCO1` (single isomer, unassigned) [4A], the IC50 was < 400 nM in test [1], 400 to 4000 nM in test [2] (setting [3]), 400 to 4000 nM in test [2] (setting [4]) and < 400 nM in test [2] (setting [5]).
On to `CNC(=O)c1nc2ccc1Nc1nc(ncc1C(F)(F)F)Nc1ccc(cc1OC)CP(C)(=O)OCC(C)(C)Cn1cc-2cn1` (single isomer, unassigned) [62A], for which the figures for the IC50 in test [2] (setting [3]), in test [2] (setting [4]) and in test [2] (setting [5]) were < 400 nM, 400 to 4000 nM and < 400 nM, respectively.
Consider `CNC(=O)c1nc2ccc1Nc1nc(ncc1C(F)(F)F)Nc1ccc(cc1OC)CP(C)(=O)OCCCn1cc-2cn1` (single isomer, unassigned) [Example 61A], for which the IC50 in test [1], in test [2] (setting [3]), in test [2] (setting [4]) and in test [2] (setting [5]) was < 400 nM each time.
As to `CCOP1(=O)Cc2ccc(c(OC)c2)Nc2ncc(C(F)(F)F)c(n2)Nc2ccc(nc2C(=O)NC)-c2cn(nc2OC)CCCO1` (centres unmarked), the IC50 in test [1], in test [2] (setting [3]), in test [2] (setting [4]) and in test [2] (setting [5]) was < 400 nM in each case.
`CCOP1(=O)Cc2ccc(c(OC)c2)Nc2ncc(C(F)(F)F)c(n2)Nc2ccc(cc2C(=O)NC)-c2cnn(c2)CCCO1` (single isomer, unassigned) [4B]: the IC50 in test [1], in test [2] (setting [3]), in test [2] (setting [4]) and in test [2] (setting [5]) was < 400 nM in each case.
For `CCOP1(=O)Cc2cc(OC)c(cc2Cl)Nc2ncc(C(F)(F)F)c(n2)Nc2ccc(nc2C(=O)NC)-c2cnn(c2)CCCO1` (centres unmarked), the IC50 in test [1] is < 400 nM; in test [2] (setting [3]), > 4000 nM; in test [2] (setting [4]) it was > 4000 nM; in test [2] (setting [5]) it was 400 to 4000 nM.
Take `CCCP1(=O)Cc2ccc(c(OC)c2)Nc2ncc(C(F)(F)F)c(n2)Nc2ccc(nc2C(=O)NC)-c2cnn(c2)CCCO1` (centres unmarked): the IC50 in test [1], in test [2] (setting [3]), in test [2] (setting [4]) and in test [2] (setting [5]) was < 400 nM in each case.
On to `CCCP1(=O)Cc2ccc(c(OC)c2)Nc2ncc(C(F)(F)F)c(n2)Nc2ccc(cc2C(=O)NC)-c2cnn(c2)CCCO1` (single isomer, unassigned) [66B], for which the IC50 in test [1], in test [2] (setting [3]), in test [2] (setting [4]) and in test [2] (setting [5]) was < 400 nM each time.
In the case of `CCOP1(=O)Cc2ccc(c(Cl)c2)Nc2ncc(C(F)(F)F)c(n2)Nc2ccc(nc2C(=O)NC)-c2cnn(c2)CCCO1` (centres unmarked), the IC50 in test [1] was < 400 nM; in test [2] (setting [3]) it was 400 to 4000 nM; in test [2] (setting [4]), 400 to 4000 nM; in test [2] (setting [5]) it was < 400 nM.
For the molecule `CNC(=O)c1nc2ccc1Nc1nc(ncc1C(F)(F)F)Nc1ccc(cc1OC)CP(=O)(OC(C)C)OCCCn1cc-2cn1` (centres unmarked), the IC50 in test [2] (setting [3]), in test [2] (setting [4]) and in test [2] (setting [5]) was < 400 nM in each case.
For the molecule `CCOP1(=O)Cc2ccc(c(OC)c2)Nc2ncc(C(F)(F)F)c(n2)Nc2ccc(nc2C(=O)NC)-c2cn(nc2C)CC2(COC2)CO1` (single isomer, unassigned) [Example 60A], the IC50 in test [1], in test [2] (setting [3]), in test [2] (setting [4]) and in test [2] (setting [5]) was < 400 nM each time.
Turning to `CCP1(=O)Cc2ccc(c(OC)c2)Nc2ncc(C(F)(F)F)c(n2)Nc2ccc(nc2C(=O)NC)-c2cnn(c2)CCCO1` (centres unmarked), the IC50 in test [1], in test [2] (setting [3]), in test [2] (setting [4]) and in test [2] (setting [5]) was < 400 nM throughout.
As to `CCNC(=O)c1nc2ccc1Nc1nc(ncc1C(F)(F)F)Nc1ccc(cc1OC)CP(=O)(OCC)OCC1(COC1)Cn1cc-2cn1` (centres unmarked), the IC50 in test [1], in test [2] (setting [3]), in test [2] (setting [4]) and in test [2] (setting [5]) was < 400 nM throughout.
Consider `CCOP1(=O)Cc2ccc(c(Cl)c2)Nc2ncc(C(F)(F)F)c(n2)Nc2ccc(nc2C(=O)NC)-c2cnn(c2)CC2(COC2)CO1` (centres unmarked), for which the IC50 in test [1], in test [2] (setting [3]), in test [2] (setting [4]) and in test [2] (setting [5]) was < 400 nM throughout.
`CCOP1(=O)Cc2cc(OC)c(cc2Cl)Nc2ncc(C(F)(F)F)c(n2)Nc2ccc(nc2C(=O)NC)-c2cnn(c2)CC2(COC2)CO1` (single isomer, unassigned): the IC50 in test [1], in test [2] (setting [3]), in test [2] (setting [4]) and in test [2] (setting [5]) was < 400 nM each time.
As to `CCOP1(=O)Cc2ccc(c(OC)c2Cl)Nc2ncc(C(F)(F)F)c(n2)Nc2ccc(nc2C(=O)NC)-c2cnn(c2)CC2(COC2)CO1` (single isomer, unassigned) [55B], the IC50 in test [1] was < 400 nM; in test [2] (setting [3]) it was > 4000 nM; in test [2] (setting [4]), > 4000 nM; in test [2] (setting [5]), 400 to 4000 nM.
For the molecule `CNC(=O)c1nc2ccc1Nc1nc(ncc1C(F)(F)F)Nc1ccc(cc1OC)CP(C)(=O)OCC(C)(C)Cn1cc-2cn1` (single isomer, unassigned) [62B], the IC50 in test [2] (setting [3]), in test [2] (setting [4]) and in test [2] (setting [5]) was < 400 nM each time.
